Test results published in US20130004581A1, “CONTROLLING UPTAKE BY CELLS” (Ramot at Tel-Aviv University Ltd., priority 2010, published 2013).

Experiments:
TK6 cells = conditions: pH 5; 5 minutes; P<0.001
HaCaT cells = conditions: Caco-2, pH 5
Description: FIG. 6 is a chart showing PIU of molecules different by size and charge, in accordance with some embodiments of the invention. Hacat cultures were exposed to solutions of pH 5.2 or pH 7.4 for 5 minutes period, in the presence of different fluorescence molecules (All at 25 μM concentration). FACS analysis results (FL1, geometrical mean±SD) for the cell cultures exposed to pH 5.2 are presented as fold induction relative to results obtained for cells exposed to pH 7.4. This can be used, in some embodiments of the invention, to assess effect of molecule size and charge on uptake.
FIGS. 7A-7B are charts showing the comparison of PIU in adherent and suspended HaCaT cells, in accordance with some embodiments of the invention. For FIG. 7A, HaCaT cells were tested either at their adherent state, or following harvest at a suspended state. […] FACS analyses (FL1) in terms of geometrical mean±SD are presented as fold induction relative to the constitutive uptake at physiological pH 7.4. n=9 in 3 independent experiments. For FIG. 7B, HaCaT Cells were cultivated at low, medium or high cell density. […] The cultures were harvested and undergone FACS analyses (FL1) in terms of geometrical mean±SD and are presented as fold induction relative to the constitutive uptake of low density cultures. Statistical significance was tested against the confluent culture, n=9 in 3 independent experiments. […]

Substance: Dextran-FITC
- dextran concentration relative to Caco2/TC7 and COS 5-7 cells (TK6 cells): 2 folds
- dextran concentration relative to Caco2/TC7 and COS 5-7 cells (HaCaT cells): 2 folds
